Apparent affinities of Ab-95 variants for a coronavirus HR2 peptide

Antigen: PDVDLGDISGINAS, a 14-residue peptide of the SARS-CoV-2 spike HR2 region.

The variants keep the heavy chain, the linker and the frameworks of Ab-95 (scFv order VH, the linker GGGGSGGGGSGGGGS, VL).
VH: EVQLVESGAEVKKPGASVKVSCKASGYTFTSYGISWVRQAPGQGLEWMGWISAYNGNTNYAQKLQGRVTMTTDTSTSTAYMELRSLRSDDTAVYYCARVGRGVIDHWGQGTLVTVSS
VL: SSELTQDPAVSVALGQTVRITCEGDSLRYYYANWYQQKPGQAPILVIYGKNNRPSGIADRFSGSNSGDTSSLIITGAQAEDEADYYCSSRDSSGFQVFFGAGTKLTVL

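AAYL52 was designed without a model: most single CDR substitutions and a random sample of double and triple ones. In AlphaSeq, yeast of one mating type display the scFv and yeast of the other type display the target. Binding brings cells together so that they mate, and sequencing counts the barcode pairs among the diploids. A regression on co-assayed BCL2-family reference pairs converts the normalised counts of each replicate to an apparent Kd. The assay was run in three technical replicates.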

Substitutions are numbered in sequence along the VL above, starting at 1 (not Kabat). The read-out is the apparent dissociation constant on a log10 scale (nM): the lower, the stronger. The mean shown is taken over the replicates in which the pair was detected. "nd" means that the variant was in the library but no mating with the target was seen in that replicate; the authors take this as a sign of poor binding, and no number exists. Background: pairings of library AAYL52 with three empty control strains gave a value in 28% of cases (median 3.91, 5th percentile 2.90). Values in that range, when seen in few replicates, are hard to tell from nonspecific mating. Also given: how often the same scFv was detected with the empty control strains, with their mean in brackets.

| # | changes | log10 Kd (nM) by replicate | mean, log10 nM | control signals |
|---|---|---|---|---|
| 1 | R28C/N33T/Q96Y | nd / nd / nd | nd | 2 of 9 (4.08) |
| 2 | D25Q/N51A/S88N | 3.41 / 2.84 / 2.19 | 2.81 | 6 of 9 (3.91) |
| 3 | Y31I/K50A/G94L | 3.87 / 4.44 / nd | 4.16 | 2 of 9 (3.32) |
| 4 | G49M/S55G/Q96F | 4.60 / 4.00 / nd | 4.30 | 3 of 9 (3.36) |
| 5 | G24I/G49W/Q96D | 3.08 / 5.00 / nd | 4.04 | 2 of 9 (4.22) |
| 6 | E23M/Y30F/A32S | 2.82 / 3.04 / 3.54 | 3.13 | 1 of 9 (3.81) |
| 7 | L27K/G94N | nd / nd / nd | nd | 0 of 9 |
| 8 | E23F/A32D/N33H | 2.69 / 2.76 / nd | 2.73 | 1 of 9 (2.46) |
| 9 | Y31Q/N33R/N52W | 2.79 / 3.41 / 4.33 | 3.51 | 4 of 9 (4.01) |
| 10 | S55F/F95Q/Q96Y | 3.50 / 4.08 / 1.89 | 3.16 | 2 of 9 (3.95) |
| 11 | D25I/R28K/Y29T | 2.06 / 2.03 / 2.21 | 2.10 | 2 of 9 (4.22) |
| 12 | G24K/Y30R/R90T | 4.72 / nd / nd | 4.72 | 2 of 9 (4.00) |
| 13 | S26N/Y29H/Q96R | 4.53 / 3.76 / 3.61 | 3.97 | 2 of 9 (4.19) |
| 14 | G24W/N51V | 3.43 / 5.07 / nd | 4.25 | 5 of 9 (3.99) |
| 15 | Y29N/G49C/F98Q | nd / 4.07 / nd | 4.07 | 0 of 9 |
| 16 | D25E/Y31P | 1.03 / 0.88 / 0.53 | 0.81 | 5 of 9 (4.32) |
| 17 | G49I/S92G/G94A | 3.98 / nd / nd | 3.98 | 4 of 9 (3.76) |
| 18 | L27E/A32E/N51A | 4.76 / nd / nd | 4.76 | 2 of 9 (3.46) |
| 19 | E23L/R28V/Y29K | 3.28 / 3.47 / 2.92 | 3.22 | 7 of 9 (3.59) |
| 20 | G49P/D91H/V97R | nd / nd / 3.17 | 3.17 | 2 of 9 (3.96) |
| 21 | S55D/S93R/G94I | 3.90 / 4.23 / nd | 4.06 | 1 of 9 (5.76) |
| 22 | G24Q/D25A/S88A | nd / 5.49 / nd | 5.49 | 3 of 9 (3.89) |
| 23 | S26A/P54F/R90W | 3.35 / 4.20 / 4.44 | 4.00 | 3 of 9 (4.02) |
| 24 | G49L/R90E | 4.25 / 3.98 / nd | 4.11 | 2 of 9 (4.49) |
| 25 | D25N/R28T/R90P | 5.55 / nd / 3.65 | 4.60 | 1 of 9 (3.51) |
| 26 | N33A/N51I/P54Q | nd / nd / nd | nd | 2 of 9 (4.11) |
| 27 | K50T/S88E/G94D | 3.56 / nd / 2.37 | 2.97 | 3 of 9 (3.51) |
| 28 | S26T/S89Y/V97N | 2.79 / 3.58 / 2.04 | 2.80 | 1 of 9 (2.53) |
| 29 | S88H/S89H/V97M | nd / nd / 2.62 | 2.62 | 0 of 9 |
| 30 | Y31L/K50Y/S88E | 2.59 / 3.80 / 3.00 | 3.13 | 1 of 9 (4.39) |
| 31 | E23R/Y30F/G94V | 5.55 / 4.10 / 4.46 | 4.70 | 3 of 9 (3.92) |
| 32 | Y31C/S92M | 1.84 / 1.79 / 1.69 | 1.78 | 6 of 9 (4.23) |
| 33 | S88R/R90W/S92C | 2.16 / 2.73 / 3.07 | 2.65 | 2 of 9 (3.20) |
| 34 | D25L/A32R/N33Q | 5.36 / nd / nd | 5.36 | 5 of 9 (3.91) |
| 35 | S26L/L27I/S92W | 3.08 / nd / nd | 3.08 | 2 of 9 (4.77) |
| 36 | A32V/N51Y/G94V | nd / nd / nd | nd | 1 of 9 (2.80) |
| 37 | L27A/Y29L/F98S | nd / nd / 4.46 | 4.46 | 3 of 9 (4.19) |
| 38 | Y30A/Y31T/F98G | 1.74 / 1.61 / 1.19 | 1.51 | 4 of 9 (4.07) |
| 39 | E23A/S89L/S93H | nd / nd / nd | nd | 0 of 9 |
| 40 | R53E/P54F/V97G | 2.92 / 3.58 / 3.80 | 3.43 | 4 of 9 (4.37) |
| 41 | G49T/F98D | 4.92 / 4.27 / 3.87 | 4.35 | 6 of 9 (4.14) |
| 42 | L27P/R53L/P54A | nd / nd / nd | nd | 3 of 9 (4.33) |

Excerpt, the final 5 entries:

| changes | log10 Kd (nM) by replicate | mean, log10 nM | control signals |
|---|---|---|---|
| Y30A/Y31T/F98G | 1.74 / 1.61 / 1.19 | 1.51 | 4 of 9 (4.07) |
| E23A/S89L/S93H | nd / nd / nd | nd | 0 of 9 |
| R53E/P54F/V97G | 2.92 / 3.58 / 3.80 | 3.43 | 4 of 9 (4.37) |
| G49T/F98D | 4.92 / 4.27 / 3.87 | 4.35 | 6 of 9 (4.14) |
| L27P/R53L/P54A | nd / nd / nd | nd | 3 of 9 (4.33) |

Data: MIT Lincoln Laboratory AlphaSeq set, Engelhart et al. 2022, doi:10.1038/s41597-022-01779-4, as distributed in FLAb.